Some of the results follow.
B1: hsa-mir-491 (structured_RNA)
RNA: GGGAAGGAGAACUGCAUGGAUUUAGCCCGGUGUACGAAGUUUCAGCUGAGGAGUAGAACACUCCUUAGCUGAAGCUUCGUGCAC
B2: hsa-mir-5087 (structured_RNA)
RNA: GGGAAGCCAGGGUAUUAAAUAACGUGUCGGUGUACGAAGUUUCAGCCAUGUUAAGUGUUGUCCUACAGGCUGAAGCUUCGUGCAC
B3: hsa-mir-6748 (structured_RNA)
RNA: GGGAAGACAACCGGAUGAACACUUAGUCGGUGUACGAAGUUUCAGCUGGAUUUGAAAUGGUCCCACUCCUGACGAUCCUGCUGAAGCUUCGUGCAC
B4: hsa-mir-548u (structured_RNA)
RNA: GGGAAACGAACGAAAUCCGGGUCGAGUCGGUGUACGAAGUUUCAGCUUUUUCUUUACUUUUAAUGGCAAAGCUGAAGCUUCGUGCAC
B5: hsa-mir-4759 (structured_RNA)
RNA: GGGAGCGACAAGAGCUUUAAUACAUGCUGGUGUACGAAGUUUCAGCAUUAGACAGAAAAAAGUUAGACACAAAAAAUUGUGUCUAAUGCUGAAGCUUCGUGCAC
B6: hsa-mir-577 (structured_RNA)
RNA: GGGAACGACGUUGAUAGGCGUUAUCCCCGGUGUACGAAGUUUCAGCCCUGAUGAAUCUGAGGCCAGGGCUGAAGCUUCGUGCAC
B7: hsa-mir-765 (structured_RNA)
RNA: GGGAAGAUCGUGCGAUCAGGUCGAGACAGGUGUACGAAGUUUCAGCAAGCCCUACGAGAAACUGGGGUUUCUGGAGCUGAAGCUUCGUGCAC
B8: hsa-mir-6885 (structured_RNA)
RNA: GGGAAAGGUCGGAGCCGAAGUUGGAUUUGGUGUACGAAGUUUCAGCAAAGCCAGGGACCCUGAGAGGCUUUGCUGAAGCUUCGUGCAC
B9: hsa-mir-6127 (structured_RNA)
RNA: GGGACCAUUACGUGAGGGAUAUUGGAUCGGUGUACGAAGUUUCAGCGAGGUGGGAAGGCUGCCCCAAAUGGCCUCUAACAUCCCUUCCAGUCUCCUCCUCGCUGAAGCUUCGUGCAC
B10: hsa-mir-3613 (structured_RNA)
RNA: GGGAGACAAGCAUUAUGUAUAGAGGUCCGGUGUACGAAGUUUCAGCUUGUUCGUUGCAUUUUUAGGAACAAGCUGAAGCUUCGUGCAC
B11: hsa-mir-1270 (structured_RNA)
RNA: GGGAACUGUGAAUUGACGACUCCGCAGGGGUGUACGAAGUUUCAGCGUGUUGGGUAUAAGUAACAGCUGAAGCUUCGUGCAC
B12: hsa-mir-3156-2 (structured_RNA)
RNA: GGGACAUGCUACGCGCUAACUAUAGUGCGGUGUACGAAGUUUCAGCGGAGACACUUUCACUAUAUAUAGUGGCUCCGCUGAAGCUUCGUGCAC
B13: hsa-mir-215 (structured_RNA)
RNA: GGGAGACAAUCCUGGCAACGCGAAACUAGGUGUACGAAGUUUCAGCCAGACAAUAUAGCUGAGUUUGUCUGGCUGAAGCUUCGUGCAC
B14: hsa-mir-6893 (structured_RNA)
RNA: GGGAAUUACCAUAGGGACCGAGACAAACGGUGUACGAAGUUUCAGCAGGGUGGAGCCCACUGUGGCUCCUGACUCAGCCCUGCUGAAGCUUCGUGCAC
B15: hsa-mir-9500 (structured_RNA)
RNA: GGGACGACUGUCGCGAACCUGAACACUUGGUGUACGAAGUUUCAGCCCACAUAGGAGGGACAGCGGCCUUUCCAACAGGGCUGAAGCUUCGUGCAC
B16: PARIS_ID40 (structured_RNA)
RNA: GGGAAUUCGACCAUGGGAACGAGCAUUCGGUGUACGAAGUUUCAGCCCUCUGGGUGCAGAGCUGAGGCACCCAGAGGGCUGAAGCUUCGUGCAC
B17: hsa-mir-455 (structured_RNA)
RNA: GGGAGCAUAGGGUGGCCAACUACAGAGAGGUGUACGAAGUUUCAGCCUACAUCGUGGAAGCCAGCACCAUGCAGGCUGAAGCUUCGUGCAC
B18: hsa-mir-501 (structured_RNA)
RNA: GGGAUAUACCUUGAUAGGCCCCGACCGGGGUGUACGAAGUUUCAGCGAGAGUGCUUUCUGAAUGCAAUGCGCUGAAGCUUCGUGCAC
B19: hsa-mir-645 (structured_RNA)
RNA: GGGAAAGCACGAUCACGGCAAGCUUAUGGGUGUACGAAGUUUCAGCUGUGGCCUGGGGGUUGAGGACCCCUGCUCUAGCUGAAGCUUCGUGCAC
B20: hsa-let-7d (structured_RNA)
RNA: GGGAACAAUAGGCGGAGCUUGUCAUAAUGGUGUACGAAGUUUCAGCAUAGUUUUAGGGCAGGGAUUUUGCCCACAAGGAGGUAACUAUGCUGAAGCUUCGUGCAC
B21: hsa-mir-6774 (structured_RNA)
RNA: GGGAACAGUCGGUCGUUUUGAAGCCCUAGGUGUACGAAGUUUCAGCCCUGUAUGUCUCCCCGCAGCACCGUCAUCGUGCUGAAGCUUCGUGCAC
B22: hsa-mir-5697 (structured_RNA)
RNA: GGGACAUGCCUAAGGUAAAGUAAUGCCAGGUGUACGAAGUUUCAGCAAGGGUGUAUGAGAGAUCAACCCUUGCUGAAGCUUCGUGCAC
B23: hsa-mir-5690 (structured_RNA)
RNA: GGGAAAUGGACGAGUCCCCGUUAACCAAGGUGUACGAAGUUUCAGCUAGGAUUUGGGAGUUAUACUAGCUGAAGCUUCGUGCAC

What follows are binders tested against U1A (Homo sapiens, UniProt P09012) (assay: FOREST: bead pull-down of RNA structure library v1, barcode microarray; U1A/LIN28A: 20 mM HEPES pH 7.5, 80 mM KCl, 20 mM NaCl, 10% glycerol, 2 mM DTT, 0.1 ug/uL BSA, 4 C; BG4/CIRBP/DHX36: 10 mM Tris-HCl pH 7.5, 100 mM KCl (or LiCl),; high values mean tight binding).

Binder | binding signal
B1 | 0.0241 z-score
B2 | 0.0229 z-score
B3 | 0.0225 z-score
B4 | 0.0206 z-score
B5 | 0.0189 z-score
B6 | 0.0178 z-score
B7 | 0.0176 z-score
B8 | 0.0169 z-score
B9 | 0.0164 z-score
B10 | 1.67 z-score
B11 | 0.0158 z-score
B12 | 0.0156 z-score
B13 | 0.0153 z-score
B14 | 0.0149 z-score
B15 | 0.0143 z-score
B16 | 0.0141 z-score
B17 | 0.0137 z-score
B18 | 0.0132 z-score
B19 | 0.013 z-score
B20 | 0.0128 z-score
B21 | 1.67 z-score
B22 | 0.0127 z-score
B23 | 0.0117 z-score

These binders were tested against T1, LIN28A (human?, UniProt Q9H9Z2 1-209) in the same assay as above.
T1 sequence: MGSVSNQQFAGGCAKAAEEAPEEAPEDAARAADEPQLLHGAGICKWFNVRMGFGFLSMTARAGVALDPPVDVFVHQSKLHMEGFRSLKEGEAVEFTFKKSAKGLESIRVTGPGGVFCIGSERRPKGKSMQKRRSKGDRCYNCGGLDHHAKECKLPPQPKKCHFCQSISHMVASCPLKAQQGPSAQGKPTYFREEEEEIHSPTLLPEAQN

Binder | binding signal
B1 | -0.231 z-score
B2 | -0.274 z-score
B3 | -0.306 z-score
B4 | -1.07 z-score
B5 | 1.21 z-score
B6 | 0.561 z-score
B7 | 0.395 z-score
B8 | 0.844 z-score
B9 | 1.47 z-score
B10 | 0.559 z-score
B11 | 0.647 z-score
B12 | -0.928 z-score
B13 | -0.192 z-score
B14 | 0.672 z-score
B15 | -1.72 z-score
B16 | -0.499 z-score
B17 | -0.31 z-score
B18 | 0.35 z-score
B19 | 0.488 z-score
B20 | 3.3 z-score
B21 | -0.189 z-score
B22 | -0.308 z-score
B23 | 1.36 z-score

What follows are binders tested against T2, CIRBP (Homo sapiens, UniProt Q14011 1-172) in the same assay as above.
T2 sequence: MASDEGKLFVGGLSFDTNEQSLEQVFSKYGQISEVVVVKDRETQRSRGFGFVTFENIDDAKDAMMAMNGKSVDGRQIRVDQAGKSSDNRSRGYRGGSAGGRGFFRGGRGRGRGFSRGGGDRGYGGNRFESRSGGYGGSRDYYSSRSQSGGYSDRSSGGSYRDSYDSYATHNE

Binder | binding signal
B1 | -1.32 z-score
B2 | -0.167 z-score
B3 | -0.15 z-score
B4 | 1.66 z-score
B5 | 1.52 z-score
B6 | 0.134 z-score
B7 | 1.55 z-score
B8 | 0.351 z-score
B9 | 0.33 z-score
B10 | 0.346 z-score
B11 | 0.245 z-score
B12 | -0.92 z-score
B13 | -1.01 z-score
B14 | 0.755 z-score
B15 | 0.347 z-score
B16 | -0.0816 z-score
B17 | 1.13 z-score
B18 | 0.348 z-score
B19 | 1.96 z-score
B20 | 1.48 z-score
B21 | -1 z-score
B22 | 0.997 z-score
B23 | 0.47 z-score

What follows are binders tested against T3, DHX36 (Homo sapiens, UniProt Q9H2U1 1-1008) in the same assay as above.
T3 sequence: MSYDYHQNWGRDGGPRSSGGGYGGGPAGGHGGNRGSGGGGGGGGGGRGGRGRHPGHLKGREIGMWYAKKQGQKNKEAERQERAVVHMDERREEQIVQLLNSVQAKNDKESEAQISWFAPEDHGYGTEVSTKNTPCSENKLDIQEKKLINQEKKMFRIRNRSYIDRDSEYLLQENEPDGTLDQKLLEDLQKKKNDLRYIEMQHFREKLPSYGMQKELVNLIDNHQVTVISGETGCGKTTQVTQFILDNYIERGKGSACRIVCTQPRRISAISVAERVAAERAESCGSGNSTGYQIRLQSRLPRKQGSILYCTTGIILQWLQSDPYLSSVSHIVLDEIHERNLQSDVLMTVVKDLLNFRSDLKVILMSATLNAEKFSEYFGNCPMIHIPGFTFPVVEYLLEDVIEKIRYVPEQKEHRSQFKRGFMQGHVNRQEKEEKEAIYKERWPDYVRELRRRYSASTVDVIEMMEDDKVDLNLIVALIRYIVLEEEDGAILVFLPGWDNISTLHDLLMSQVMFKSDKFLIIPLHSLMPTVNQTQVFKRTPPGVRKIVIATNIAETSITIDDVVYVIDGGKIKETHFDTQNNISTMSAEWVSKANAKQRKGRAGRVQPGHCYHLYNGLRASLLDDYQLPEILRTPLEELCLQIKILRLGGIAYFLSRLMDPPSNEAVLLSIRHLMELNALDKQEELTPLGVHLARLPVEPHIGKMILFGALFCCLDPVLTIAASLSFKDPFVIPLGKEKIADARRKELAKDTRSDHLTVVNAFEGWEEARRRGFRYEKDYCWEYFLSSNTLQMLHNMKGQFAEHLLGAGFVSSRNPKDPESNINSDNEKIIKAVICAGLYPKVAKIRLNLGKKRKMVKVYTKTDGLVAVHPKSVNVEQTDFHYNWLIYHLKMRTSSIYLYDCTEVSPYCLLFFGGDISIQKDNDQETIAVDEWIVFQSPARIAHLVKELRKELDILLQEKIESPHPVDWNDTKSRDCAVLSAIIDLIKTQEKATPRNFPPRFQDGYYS

Binder | binding signal
B1 | 1.02 z-score
B2 | 0.419 z-score
B3 | -0.838 z-score
B4 | -0.537 z-score
B5 | 0.02 z-score
B6 | -0.284 z-score
B7 | -0.104 z-score
B8 | 0.0253 z-score
B9 | 1.08 z-score
B10 | 0.102 z-score
B11 | -1.24 z-score
B12 | -1.1 z-score
B13 | -0.8 z-score
B14 | 0.482 z-score
B15 | -0.00321 z-score
B16 | -0.337 z-score
B17 | 0.77 z-score
B18 | 0.139 z-score
B19 | 0.504 z-score
B20 | 1.4 z-score
B21 | 0.389 z-score
B22 | -0.00865 z-score
B23 | 1.36 z-score

Reference: paper PMC7723054
